Series [1] has as its system mice. As to the kind of experiment: Ptosis (Pto.), primary rodent screen. The note with it: po, read-out: Pto. ED50 (ptosis). The format is in vivo, mouse.
For series [2], the system named is mice. Kind of series: Decreased Locomotor Activity (L.M.A.), primary rodent screen. The format is in vivo, mouse. The note with it: po, read-out: L.M.A. ED50 (decreased locomotor activity).
The test system of series [3] is mice. Kind of series: Phenylquinone Writhing (P.Q.W.) test, analgesic activity. In kind it is in vivo, mouse. The following applies: 0.5 h, po, read-out: P.Q.W. ED50 (analgesic ED50). How it is done:
The analgesic activity of the compounds of the present invention is conveniently determined in a phenylquinone writhing test, as described below:
Phenylquinone Writhing (P.Q.W.):
results given in: mg/kg po/mouse
Groups of at least 10 mice are given phenyl-p-benzoquinone 2.5 mg/kg intraperitoneally 30 minutes after oral administration of graded doses of the test substance. Two or more dose levels are used for each compound. For scoring purposes, a "writhe" is defined as stretching, twisting of a hindleg inward, or contraction of the abdomen. The total number of writhes for each animal, treated and control animals side-by-side, are counted over a 30-minute time interval. […] The P.Q.W. test is widely used as an indicator of potential analgesic activity in man, especially for non-narcotic substances.
A general note: Writhing tests count abdominal constrictions after an irritant is injected.

The nature of the next series: Solubility in water. In kind it is physicochemical.
[4] abbreviates: mouse, oral dose producing score of at least -1.
Setting [5] is: mouse, phenyl-p-benzoquinone 2.5 mg/kg ip 30 min after dose, 30-minute count.

Molecules are shown by their SMILES. Counter-ions that a name gives are not always drawn.

Usually LD50 stands for the dose at which mortality reaches 50%. A higher LD50 goes with lower toxicity. What is called ED50 is the dose at which the effect has come halfway, by size or by number of responders.

Consider `O=C(CCN1CC[C@@H]2[C@@H](C1)c1cccc3c1N2c1ccccc1CC3)c1ccccc1` (racemic) [Example 8, (±)-3-(trans-1,2,3,4,4a,8,9,14a-octahydropyrido[4',3':2,3]indolo[1,7-ab][1]benzazepin-3-yl)propiophenone], for which the LD50 in the series “in vivo” was over 324 mg/kg. Also, the ED50 was 20 mg/kg in the series on mice [1] (mouse, passive ptosis); 200 mg/kg in the series with mice [2] (setting [4]); 26 mg/kg in the series with mice [3] (setting [5]).
`c1ccc2c(c1)CCc1cccc3c4c(n-2c13)CCNC4` [1,2,3,8,9-hexahydropyrido[4',3':2,3]=indolo[1,7ab][1]benzazepine hydrochloride]: the solubility in water entry in the series “Solubility in water” is recorded as “only very slightly soluble in water”.
Take `CC(Cl)=CCN1CC[C@@H]2[C@@H](C1)c1cccc3c1N2c1ccccc1CC3` (racemic) [Example 1, (±)-trans-3-(3-chloro-2-butenyl)-1,2,3,4,4a,8,9,14a-octahydropyrido[4',3':2,3]indolo[1,7-ab][1]benzazepine]: in “in vivo”, the LD50 is over 300 mg/kg. Also, the 50% effective dose (ED50) with mice [1] (mouse, passive ptosis) is over 300 mg/kg; with mice [2] (setting [4]) it was over 300 mg/kg; in the series on mice [3] (setting [5]), 86 mg/kg.
On to `CC(=O)CCN1CC[C@@H]2[C@@H](C1)c1cccc3c1N2c1ccccc1CC3` (racemic) [Example 6, (±)-4-(trans-1,2,3,4,4a,8,9,14a-octahydropyrido[4',3':2,3]indolo[1,7-ab][1]benzazepin-3-yl)-2-butanone], for which the median lethal dose (LD50) in “in vivo” is over 324 mg/kg. Besides, the ED50 came to 7.1 mg/kg with mice [1] (mouse, passive ptosis); 8 mg/kg in the series with mice [2] (setting [4]); 1.25 mg/kg in the series on mice [3] (setting [5]).
`CN(C)CCCN1c2ccccc2Sc2ccc(Cl)cc21` [chlorpromazine (HCl), chlorpromazine, reference compound]: the median effective dose (ED50) in the series on mice [1] (Mus musculus) was found to be 6 mg/kg; in the series with mice [2] (Mus musculus), 5 mg/kg.
In the case of `CC(=O)CCCN1CC[C@@H]2[C@@H](C1)c1cccc3c1N2c1ccccc1CC3` (racemic) [Example 7, (±)-5-(trans-1,2,3,4,4a,8,9,14a-octahydropyrido[4',3':2,3]indolo[1,7-ab][1]benzazepin-3-yl)-2-pentanone], in “in vivo”, the LD50 is over 324 mg/kg. Further, the ED50 with mice [1] (mouse, passive ptosis) came out at 1.3 mg/kg; with mice [2] (setting [4]) it was 2.6 mg/kg; with mice [3] (setting [5]) it was 1.4 mg/kg.
On to `COc1ccc2c3c1O[C@H]1[C@@H](O)C=C[C@H]4[C@@H](C2)N(C)CC[C@@]341` [codeine phosphate, reference compound], for which, in the series on mice [3] (Mus musculus), the 50% effective dose (ED50) was 19 mg/kg.
Regarding `CC(=O)CN1CC[C@@H]2[C@@H](C1)c1cccc3c1N2c1ccccc1CC3` (relative stereo) [Example 3, (±)-trans-3-acetonyl-1,2,3,4,4a,8,9,14a-octahydropyrido[4',3':2,3]indolo[1,7-ab][1]benzazepipine], the LD50 in “in vivo” was over 300 mg/kg. In addition, the median effective dose (ED50) with mice [1] (mouse, passive ptosis) amounted to 4 mg/kg; in the series with mice [2] (setting [4]) it was 2 mg/kg; with mice [3] (setting [5]) it was 2 mg/kg.
